The values that follow come from patent publication US20190307740A1, “COMPOSITIONS AND METHODS FOR TREATMENT RELATED TO FALL AND FALL FREQUENCY IN NEURODEGENERATIVE DISEASES” (Neurocea, LLC, priority 2016, published 2019).

Test [1] deals with rats with a unilateral 6-hydroxydopamine lesion. In words: LIDs in rats with a unilateral 6-hydroxydopamine lesion. Type of test: in vivo. As to conditions: parkinsonian rat model of LIDs.
Another test concerns nAChR. As to conditions: cited from earlier work.

As to `O=C(C1CC1)N1CC2CC(C1)N2`, in test [1], the “effect on LIDs” value is “reduced LIDs to varying extents”. Moreover, the Type of agonist entry in the test on nAChR is listed as “Full”.
